Measurements from patent US4554284A, “7-(2-Aminoethyl)-1,3-benzthia- or oxa-zol-2(3H)-ones” (Smithkline Beckman Corporation, priority 1984, dated 1985).

By UniProt entry, the sequences of proteins in these tests, tags left out. Residues count along the entry.
UniProt G1T1Q0, 1-443: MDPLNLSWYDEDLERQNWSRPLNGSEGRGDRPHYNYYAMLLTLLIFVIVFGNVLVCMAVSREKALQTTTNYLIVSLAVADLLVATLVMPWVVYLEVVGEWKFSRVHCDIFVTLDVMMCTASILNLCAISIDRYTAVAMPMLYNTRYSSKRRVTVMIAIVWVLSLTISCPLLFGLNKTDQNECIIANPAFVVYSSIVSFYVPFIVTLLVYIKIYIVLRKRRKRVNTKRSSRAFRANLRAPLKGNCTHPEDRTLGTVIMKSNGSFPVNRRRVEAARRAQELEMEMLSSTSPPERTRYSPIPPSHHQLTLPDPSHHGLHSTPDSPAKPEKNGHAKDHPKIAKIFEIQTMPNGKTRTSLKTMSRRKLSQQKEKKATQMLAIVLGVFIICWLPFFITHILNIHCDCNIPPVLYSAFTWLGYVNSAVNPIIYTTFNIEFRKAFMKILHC

Target: T1, D2-receptors (presynaptic dopaminergic receptors) (Oryctolagus cuniculus, UniProt G1T1Q0)
T1 construct: perfused rabbit ear artery protocol; from tissue; host or cells: rabbit ear artery (perfused, isolated)
Assay: perfused rabbit ear artery protocol (D2-agonist activity)
Type: cell-based

- EC50: 2 nM
SMILES: CCCN(CCC)CCc1ccc(O)c2c1CC(=O)N2 [F, 7-hydroxy-4-[2-(di-n-propylamino)ethyl]-2(3H)-indolone, reference compound]
